# Measured affinities in a library of Ab-14 heavy chain variants

From the AlphaSeq antibody data of Li et al. 2023 (doi:10.1038/s41467-023-39022-2), copy in the FLAb collection.

Binding partner: SARS-CoV-2 spike HR2 peptide, sequence PDVDLGDISGINAS.

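The variants were designed computationally from a first round of random CDR variants and then made and measured. Their group label is 14H_GP_Gibbs (GP: Gaussian process model; Gibbs: Gibbs sampling; a sequence that several methods proposed may carry one label only). The assay is AlphaSeq: two haploid yeast populations carry antibody and antigen on their surface. After mating in shaken culture at 30 °C for 16 h, diploids were selected and their barcode pairs sequenced. Each replicate has its own calibration line, from reference interactions of the BCL2 family. Each pool was mated in six replicate cultures.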

The variants keep the light chain, the linker and the frameworks of Ab-14 (scFv order VH, a 15-residue (Gly4Ser)3 linker, VL).
VH: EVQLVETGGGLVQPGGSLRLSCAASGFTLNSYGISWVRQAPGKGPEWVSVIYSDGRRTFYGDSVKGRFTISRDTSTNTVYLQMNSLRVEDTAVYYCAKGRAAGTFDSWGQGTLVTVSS
VL: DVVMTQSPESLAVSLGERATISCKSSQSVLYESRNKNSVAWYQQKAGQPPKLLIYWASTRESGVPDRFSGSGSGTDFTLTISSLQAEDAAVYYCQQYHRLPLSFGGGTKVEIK

Substitutions are numbered in sequence along the VH above, starting at 1 (not Kabat).
Values are log10 of the apparent Kd in nM; lower means stronger binding.
Replicates are averaged; those with no signal do not enter the mean.
"n.d." marks a missing value. The strain was present, yet no cells mated with the target were sequenced in that replicate, which points to weak or no binding.

changes | log10 Kd (nM) by replicate | mean, log10 nM | signal with controls
T28N G61Q A101L | 0.91 1.05 1.38 0.68 1.71 2.18 | 1.32 | 0/18
G26Y T28S F59A A101N | 0.87 0.66 0.42 0.68 0.57 0.49 | 0.62 | 1/18 (2.94)
T28D F59A A101Q S107T | n.d. 0.21 n.d. 1.07 1.38 2.12 | 1.20 | 0/18
T28E G61I S63D A101T | 1.35 0.49 0.44 0.40 0.46 0.54 | 0.61 | 1/18 (2.26)
T28D S63E R100Q | 1.18 0.21 0.23 0.44 0.62 1.19 | 0.65 | 0/18
T28N G61T R100L A101N | 0.80 0.52 1.09 0.68 0.24 0.52 | 0.64 | 0/18
T28D G61A S63R R100K S107T | n.d. 2.10 n.d. n.d. n.d. 4.10 | 3.10 | 1/18 (2.31)
N30E G61A S63D S107K | 0.97 0.68 0.71 0.65 1.55 0.94 | 0.92 | 1/18 (1.65)
T28Q S31D A101T S107L | 0.69 0.47 0.25 0.10 0.07 0.43 | 0.33 | 0/18
T28W S31D F59M A101T | 0.63 1.03 0.29 1.12 1.04 1.83 | 0.99 | 0/18
T28D G61A S63R R100V | 0.32 0.54 0.50 0.43 0.20 0.57 | 0.43 | 0/18
N30D S63R A101T S107K | n.d. 1.28 0.87 2.16 1.26 1.44 | 1.40 | 0/18
T28S S63H R100K S107V | 2.12 1.52 1.72 1.81 1.54 2.05 | 1.79 | 4/18 (2.74)
T28D S63D R100E S107K | 0.99 0.47 0.24 -0.09 0.37 1.51 | 0.58 | 0/18
T28E G61S S63H A101T | 1.11 1.41 0.97 2.31 2.57 1.30 | 1.61 | 0/18
S31E A101T D106W S107T | -0.01 -0.15 -0.43 -0.01 -0.54 -0.28 | -0.24 | 0/18
T28S S53A S63Q R100K S107R | 0.30 0.99 0.46 0.33 0.43 0.45 | 0.50 | 0/18
T28Q G61A S63K A101T | 0.77 0.95 1.99 0.50 n.d. 0.95 | 1.03 | 1/18 (0.93)
T28D G61Q S63R R100Q | n.d. 2.82 1.65 1.74 0.96 2.93 | 2.02 | 1/18 (2.65)
T28E G61V R100N S107T | 0.59 0.47 0.21 0.40 0.32 0.40 | 0.40 | 0/18
T28E A101I S107L | n.d. 1.14 1.14 1.16 1.38 1.85 | 1.34 | 0/18
T28H G61A S63Q R100Q A101T | 1.43 1.01 1.03 1.17 1.75 1.61 | 1.33 | 1/18 (1.29)
T28S S31E G61C R100Q | 0.67 0.97 -0.16 0.49 0.49 0.71 | 0.53 | 0/18
T28E R56Q A101T S107K | 0.72 1.51 0.81 0.47 1.16 0.94 | 0.93 | 0/18
T28Q S31E G61A S107K | 0.82 0.88 0.63 0.45 0.60 -0.05 | 0.56 | 0/18
T28D S31E R100K S107T | -0.16 -0.32 -0.64 -0.59 -0.59 0.01 | -0.38 | 0/18
T28D G61V S63D S107V | 0.20 0.12 -0.09 0.18 0.31 0.20 | 0.15 | 1/18 (3.10)
T28P R56M A101T | n.d. n.d. n.d. n.d. 2.98 n.d. | 2.98 | 0/18
T28W S31E G61K R100Q A101T | n.d. 1.42 0.85 1.18 n.d. n.d. | 1.15 | 0/18
T28S G61V S63D A101T S107Q | 0.98 0.68 0.20 0.44 0.08 0.69 | 0.51 | 0/18
G26K T28Q S31D G61A A101T | n.d. n.d. n.d. n.d. n.d. n.d. | n.d. | 0/18
T28Q G61V R100K A101T S107T | 1.54 1.33 1.40 1.18 1.41 2.07 | 1.49 | 0/18
T28A G61I A101V | 1.53 1.29 1.20 2.71 0.70 1.42 | 1.48 | 1/18 (2.46)
T28Q S31E G61A R100K S107K | 0.48 -0.06 0.17 0.20 -0.28 0.33 | 0.14 | 0/18
T28Q S31E G61A S63Q | 0.34 0.12 -0.07 0.15 -0.51 0.45 | 0.08 | 0/18
T28A S31E F59M A101N | 1.24 1.11 0.81 0.60 0.94 0.54 | 0.87 | 0/18
T28E S31T F59M A101Q | 0.69 1.52 n.d. 0.88 0.45 0.74 | 0.86 | 1/18 (0.81)
T28E G61V R100K A101V | n.d. n.d. n.d. n.d. n.d. n.d. | n.d. | 0/18
G26K T28Q S53A A101T | 1.61 0.86 1.22 2.19 1.47 0.92 | 1.38 | 0/18
T28S R56K S63R R100Q A101T | 0.89 0.54 0.56 0.25 0.87 0.26 | 0.56 | 0/18
T28D S63R R100Q A101I | n.d. n.d. n.d. 1.46 n.d. n.d. | 1.46 | 0/18
T28D G61A S63R R100N S107N | n.d. 2.05 n.d. n.d. n.d. n.d. | 2.05 | 0/18

Top 5 of the variants detected in all replicates, tightest first:

changes | log10 Kd (nM) by replicate | mean, log10 nM | signal with controls
T28D S31E R100K S107T | -0.16 -0.32 -0.64 -0.59 -0.59 0.01 | -0.38 | 0/18
S31E A101T D106W S107T | -0.01 -0.15 -0.43 -0.01 -0.54 -0.28 | -0.24 | 0/18
T28Q S31E G61A S63Q | 0.34 0.12 -0.07 0.15 -0.51 0.45 | 0.08 | 0/18
T28Q S31E G61A R100K S107K | 0.48 -0.06 0.17 0.20 -0.28 0.33 | 0.14 | 0/18
T28D G61V S63D S107V | 0.20 0.12 -0.09 0.18 0.31 0.20 | 0.15 | 1/18 (3.10)

In the paper, a design with two or fewer of six values counts as a poor binder.
The range of this assay differs from that of the first round, and the authors advise against merging the two.
Empty control strains, which show no peptide, gave a signal in 1% of pairings with all heavy chain designs; the median was 2.08 and 95% of these signals were weaker than 0.84. No background was subtracted. For each scFv, signals with the empty controls are counted beside the result, with their mean in brackets.